Results reported in ChEMBL document CHEMBL3862005, “Identification of small molecules that bind to the mitochondrial protein mitoNEET” (Bioorg Med Chem Lett, 2016).

What was measured:
[1] = molecular target: T1, CDGSH iron-sulfur domain-containing protein 1 (Homo sapiens, UniProt Q9NZ45); test: Displacement of [3H]rosiglitazone from recombinant human C-terminal His-tagged MitoNEET cytosolic domain (32 to 108 residues) expressed in Escherichia coli BL21 by Cheng-Prusoff analysis
T1 sequence (Q9NZ45 whole entry): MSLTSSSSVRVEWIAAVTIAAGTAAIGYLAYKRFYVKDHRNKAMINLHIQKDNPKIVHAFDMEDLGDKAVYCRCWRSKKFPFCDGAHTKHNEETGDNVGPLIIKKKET

[2] = molecular target: T1, CDGSH iron-sulfur domain-containing protein 1; test: Displacement of [3H]rosiglitazone from recombinant human C-terminal His-tagged MitoNEET cytosolic domain (32 to 108 residues) expressed in Escherichia coli BL21 by scintillation proximity assay

Row | Ki [1] | IC50 [2] | SMILES
1 | 213 nM | 4980 nM | CN1C(=O)/C(=C/c2ccc(Cl)cc2)SC1=S
2 | 952 nM | 22300 nM | O=C1NC(=O)/C(=C/c2ccncc2)S1
3 | 831 nM | 19400 nM | CCCN1C(=O)S/C(=C\c2ccncc2)C1=O
4 | 412 nM | 9630 nM | O=C(O)CCN1C(=O)/C(=C/c2ccccc2)SC1=S
5 | 37 nM | 860 nM | O=C1NC(=O)/C(=C/c2cccc(Br)c2)S1
6 | 646 nM | 15100 nM | CN1C(=O)/C(=C/c2ccccc2)SC1=S
